What was measured:
[1] = biological target: TBG (thyroxine-binding globulin) (Homo sapiens, UniProt P05543); test: Displacement of radioactive T4 from TBG in a CPBA system; design: unit not given here; conditions: 100 ug blocking agent
TBG = TBG (Homo sapiens, UniProt P05543); test: Displacement of radioactive T3 from TBG; type: binding; conditions: 100 ug blocking agent

Protein sequences, listed by entry. Tags and fused reporters are not part of them. Residues count along the entry.
UniProt P05543, 21-415 limits assumed: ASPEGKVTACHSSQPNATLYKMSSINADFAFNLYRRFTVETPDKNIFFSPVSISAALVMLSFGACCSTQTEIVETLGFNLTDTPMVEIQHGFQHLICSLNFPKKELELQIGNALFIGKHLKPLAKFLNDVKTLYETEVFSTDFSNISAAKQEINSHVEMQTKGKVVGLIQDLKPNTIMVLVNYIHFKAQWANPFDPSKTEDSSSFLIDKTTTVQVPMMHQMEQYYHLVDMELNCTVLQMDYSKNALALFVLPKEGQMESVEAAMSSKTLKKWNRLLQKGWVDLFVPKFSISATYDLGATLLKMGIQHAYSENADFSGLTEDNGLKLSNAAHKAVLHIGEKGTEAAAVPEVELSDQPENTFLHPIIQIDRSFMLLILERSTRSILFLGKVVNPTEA

SMILES: O=[N+]([O-])c1cc([N+](=O)[O-])c(S(=O)(=O)O)c([N+](=O)[O-])c1
- AMOUNT T4 DISPLACED FROM TBG [1]: 7.1
- AMOUNT T3 DISPLACED FROM TBG (TBG): 7.0 ng

— patent USRE32098E (Research and Education Institute, Inc., priority 1978, dated 1986)
